Yeast mating assay B: variants of the scFv Ab-14

Binding partner: SARS-CoV-2 spike HR2 peptide, sequence PDVDLGDISGINAS.

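The starting antibody came from a phage panning campaign against this peptide. The variants were designed computationally from a first round of random CDR variants and then made and measured. Their group label is 14L_En_Gibbs (En: ensemble of fine-tuned language models; Gibbs: Gibbs sampling). The assay is AlphaSeq: two haploid yeast populations carry antibody and antigen on their surface. The frequency of each diploid, read from paired DNA barcodes, reflects how well the two displayed proteins bind. A regression on co-assayed BCL2-family reference pairs converts the normalised counts of each replicate to an apparent Kd. Mating was done six times.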

Parent scFv Ab-14: VH joined to VL by three GGGGS repeats. Changes lie in the light chain CDRs alone.
VH: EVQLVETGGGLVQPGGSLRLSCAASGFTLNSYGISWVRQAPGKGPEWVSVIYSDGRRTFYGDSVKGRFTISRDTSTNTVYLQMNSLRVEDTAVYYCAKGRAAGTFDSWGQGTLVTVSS
VL: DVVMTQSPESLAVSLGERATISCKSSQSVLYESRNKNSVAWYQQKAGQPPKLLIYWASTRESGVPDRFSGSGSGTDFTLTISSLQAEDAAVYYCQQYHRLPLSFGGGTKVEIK

Each variant is given by its three light chain CDRs, as the data file delimits them; those of the parent are KSSQSVLYESRNKNSVA, WASTRES, QQYHRLPLS.
Scale: log10 of Kd in nM, estimated from mating counts; low values are strong binders.
An entry "nd" has no value in the source: the pair was not observed among the diploids in that replicate. This suggests poor binding but is not conclusive.
In the paper, a design with two or fewer of six values counts as a poor binder.
Empty control strains, which show no peptide, gave a signal in 4% of pairings with all light chain designs; the median was 2.64 and 95% of these signals were weaker than 1.59. No background was subtracted. For each scFv, signals with the empty controls are counted beside the result, with their mean in brackets.
A sequence measured in both rounds can read differently, since the two assays cover different ranges.

CDR-L1,CDR-L2,CDR-L3,log10 Kd (nM) by replicate,control signals
NISINQMDEYKMRSNIA,NTSQKAM,QQYFHLPLM,0.39 / 0.19 / 0.18 / 0.16 / 0.18 / 0.31,1/18 (2.46)
KVDISPHVQGMHKHGVA,DHDMRVS,QQYDRLPLA,0.52 / 0.42 / 0.89 / 0.46 / 0.74 / 0.79,0/18
HIDILNRGETLKQDDIA,NADHREQ,QQYFHLPLA,0.95 / 1.01 / 0.72 / 0.50 / 0.18 / 0.73,0/18
QLATEVHDNAKLRNSIA,ENELRAM,QQYLMLPLS,0.23 / 0.40 / 0.40 / 0.01 / 0.23 / 0.31,1/18 (3.55)
QTTPFGIQKDEESNNVA,HDSVRAE,QQYFRLPLV,0.88 / 0.73 / 0.38 / 1.07 / 1.02 / 0.86,1/18 (2.50)
NMQMDNDRMNDAEKAIA,DVIMRET,QQYNRLPLM,0.96 / 1.02 / 0.99 / 0.95 / 0.96 / 1.24,2/18 (2.96)
SFHEVNFEGLAQTANVA,NASYAFE,QQYFRLPLT,0.72 / 0.63 / 0.48 / 0.49 / 0.34 / 0.73,0/18
MLRCDITDGQKNWNNIA,ETSELGA,QQYAHLPLG,nd / nd / nd / nd / nd / nd,0/18
NLVGRAQMQDSGRQAIA,NAHARCT,QQYFHLPLT,0.59 / 0.39 / 0.98 / 0.49 / 0.69 / 0.59,0/18
NVRLNEGEIDMHWYSIA,SVDIRAD,QQYSRLPLF,1.26 / 0.71 / 1.01 / 0.62 / 0.71 / 0.76,0/18
VLSDTIENQYDEADNIA,DKTETSE,QQYARLPLS,0.90 / 1.24 / 1.27 / 1.04 / 1.28 / 1.41,0/18
NVSIKEPGNWMMMDSVA,HSSLRAE,QQYWRLPLM,0.27 / -0.03 / -0.02 / -0.04 / -0.07 / 0.20,1/18 (2.46)
NIVGRVEDNQTENNAIA,DAHCRAG,QQYSRLPLS,1.23 / 0.78 / 0.81 / 0.87 / 0.44 / 0.57,1/18 (2.82)
KLLDWYYGQTAMDSNIA,DQALEMD,QQYSRLPLT,nd / 2.72 / nd / 1.93 / 2.18 / 2.10,0/18
SLTRFNLQNQGNSNNIA,DTNQVQE,QQYFRLPFA,0.29 / 0.38 / 0.16 / -0.31 / -0.01 / 0.10,0/18
KIRNDFMESKQNQSNIA,GHHESIK,QQYSMLPLS,1.91 / 1.74 / 2.20 / 2.07 / 1.71 / 1.82,2/18 (3.10)
KLYDEATSRVGTAENIA,EKEISLQ,QQYHRLPLS,2.66 / 1.41 / 2.20 / 1.10 / 1.90 / 2.50,0/18
MVTMNLRYGDAWQNPIA,EASHLET,QQYAHLPLG,nd / nd / nd / nd / 1.19 / nd,0/18
KLKELFAMWARAQGNVA,DATQRCT,QQYSRLPIT,0.62 / 0.48 / 0.51 / 0.56 / 0.51 / 0.58,0/18
RLLYLDLHQTGKLNSVA,DATITQQ,QQYHQLPLM,0.88 / 1.54 / 1.28 / 0.90 / 1.01 / 1.08,2/18 (2.32)
QFDLHTKQIETIESAIA,ETSVRAA,QSYVRLPLS,nd / nd / nd / nd / 1.68 / nd,0/18
KFMGSDEYQMQEQGNVA,QTEQKCN,QQYFRLPLT,0.52 / 0.71 / 0.65 / 0.51 / 0.64 / 0.48,0/18
KIQDNLGTLMQQINSVA,SSEEKSD,QSYFRLPLI,0.87 / 1.48 / 1.23 / 0.63 / 1.14 / 1.35,1/18 (2.32)
QLEVERGQEWKNGAAIA,GNTESLH,QQYAMLPLS,0.14 / 0.76 / 0.06 / -0.03 / 1.04 / 0.13,4/18 (1.91)
SMETLSQDRRLDWSAVA,EAHTIYQ,QQYARLPLS,1.00 / 1.55 / 1.50 / 0.62 / 1.90 / 2.88,0/18
KITSHIREGTADNNAMA,NADVSND,QQYSRLPLF,1.32 / 0.47 / 0.95 / 0.39 / 0.35 / 0.56,1/18 (2.22)
MMDNCQEGYYQQNNNVA,EMNARME,QQYGRLPLM,1.38 / 1.86 / 1.75 / 1.08 / 0.72 / 1.59,0/18
KIDENTFHGANRQYNIA,ESRTVGA,QQYFRLPII,1.13 / 1.84 / nd / 2.04 / 1.67 / 2.16,0/18
SLTAHHQGAKSAENSIA,NAVMLQS,QQYHQLPLM,0.55 / 0.23 / 0.26 / 0.26 / 0.33 / 0.36,0/18
KLMHYKHGGDGTRNSVA,EMTIREY,QQYFHLPLN,nd / 1.65 / 0.19 / nd / 0.31 / 1.10,0/18
SLFESEREELSVEQNIA,DGTEHMR,QQYFRLPLL,1.08 / 0.97 / 1.63 / 0.33 / nd / 0.53,0/18
KLSSHYFESYGERQAVA,ENEATMN,QQYHLLPLS,2.20 / 1.09 / 1.18 / 1.06 / 1.31 / 1.06,1/18 (3.20)
QITGSIYDKDEWGKAIA,AEDQREL,QQYFKLPLS,1.18 / 1.12 / 1.36 / 0.94 / 1.33 / 1.31,3/18 (2.80)
RMNKFMSGATEAKNSVA,GAEHRAQ,QSYHRLPLS,0.84 / 1.13 / 0.22 / 0.72 / 0.73 / 0.59,2/18 (2.66)
RIQDHYAVGTMSGSSIA,EEATWMD,QQYSRLPLA,nd / nd / nd / nd / nd / nd,0/18
TLVGNIQGGGWAIKSVA,DAVQRVN,QQYYRLPLS,nd / nd / nd / nd / 1.88 / nd,0/18
KMKQSIEGNPKNTNSIA,DVDSVTE,QQYARLPLF,1.08 / 0.44 / 0.72 / 0.30 / 0.68 / 0.54,1/18 (3.27)
HINTLDVGVSDHYNAVA,EQRIAGI,QQYFRLPLS,1.41 / 0.72 / 0.71 / 0.81 / 1.38 / 0.78,1/18 (3.66)
TFNLEYMGMMKDHNSIA,ETEHKTP,QQYFRLPIS,nd / nd / nd / nd / nd / nd,0/18
QFHQGMIGDQRNMHSVA,NAQAAVP,QYYFRLPLT,-0.62 / -1.17 / -0.40 / -0.84 / -0.97 / -1.11,0/18
HIHSQMFGTIAVKKNIA,NANTRLS,QQYSHLPLS,1.16 / 1.82 / 1.24 / 1.62 / 1.34 / 1.95,3/18 (2.71)
HIDWLNRGETLKKDDIA,NADHREQ,QQYFHLPLS,0.32 / 0.68 / 0.70 / 0.39 / 0.52 / 0.87,1/18 (3.59)
TIDDEMPSHGLKWNSIA,GVATVLQ,QQYDRLPLS,1.40 / 1.20 / 1.72 / 1.83 / 0.81 / 1.55,0/18
KIQLGLERYNGDYSSVA,NETQKGD,QQYFQLPLG,0.75 / 0.76 / 0.48 / 0.48 / 0.65 / 0.64,1/18 (2.73)
RIDAYPPIQGNNIDSIA,ENAITLD,QQYAQLPLS,2.73 / 2.10 / 1.97 / 1.72 / 1.68 / 1.64,0/18
NVHALMNISSEFQNSIA,DSECRDA,QQYFRLPLS,1.66 / 1.37 / 0.65 / 0.94 / 1.05 / 1.47,1/18 (1.78)

Reference: Li et al. 2023, doi:10.1038/s41467-023-39022-2. File: FLAb, binding data.